From PubChem
TDP1 block: TDP1 (human) enzyme inhibition; AID 485290; recombinant TDP1, AlphaScreen DNA substrate cleavage; 350,000 tested, 0.28% active; Potency, µM (top dose mostly 130 µM), for inactives: top-dose activity change, negative = inhibition, actives largely listed as inhibitors; Q9NUW8; further: potency means the concentration at half of the fitted maximal effect; on the % scale 0 is the no-effect control and ±100 the full control effect; nearly all actives have a fitted effect of over 40% in size
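AlphaScreen read-out: signal falls as enzyme removes the 3' tyrosine-FITC from a 5'-biotinylated DNA oligo (15 nM, 5 min, RT). Enzyme was E. coli-made recombinant Tdp1 at 1 nM, exposed to compound for 15 min beforehand; beads 10 ug/ml, 10 min.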
miR-21 FLuc: miR-21 reporter, rising signal | 340,000 tested, under 10 active | AID 2288 | HeLa miR-21 FLuc reporter, luciferase, 48 h | Potency, µM (titrated, usually from 38.3 µM), for inactives: at the highest dose reporter change, positive = more light; active = well fitted rising curve with a large enough effect; inconclusive = small, poorly fitted or top-dose-only effect; inactive = no such curve, though single readings can be large or run the other way;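 further: % of control where 0% means no effect; miR-21 action dims this reporter so a rising signal means less miR-21 action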
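HeLa cells stably expressing CMV-driven firefly luciferase with a downstream miR-21 binding sequence, endogenously expressing miR-21, were treated with titrations (up to about 40uM final) for 48 hours at 37 degree Celsius. Luciferase luminescence was read after lysis.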
TDP1 cell noCPT: qHTS for Inhibitors of human tyrosyl-DNA phosphodiesterase 1 (TDP1): qHTS in cells in absence of CPT; 420,000 tested, 15% active; DT40 Tdp1-/- hTDP1 cells, no CPT, ATP luminescence, 48 h; AID 686978, 2013; Potency, µM (doses to about 46.2 µM), inactives show at the top dose activity change, negative = growth inhibition, usual class: inhibitors; further: potency means the concentration at half of the fitted maximal effect; on the % scale 0 is the no-effect control and ±100 the full control effect; nearly all actives have a fitted effect of over 55% in size
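Luminescent ATP content (CellTiter-Glo) served as the growth readout. Knockout chicken DT40 cells expressing human TDP1 were exposed to compounds without camptothecin for a minimum 48 hr at 37 °C.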
uPA generation: blocks generation of uPA at the cell surface. cell surface uPA generation assay, qHTS. Potency, µM (top dose mostly 38.3 µM), for the others: at the highest dose activity change, negative = inhibition, actives largely listed as inhibitors. 330,000 tested, 0.31% active. AID 540303; active means well fitted inhibition curve with a large enough effect; inconclusive means small, poorly fitted or top-dose-only effect; inactive means no such curve, though single readings can be large or run the other way; tested in mouse RAW 264.7 cells; further: potency means the concentration at half of the fitted maximal effect; on the % scale 0 is the no-effect control and ±100 the full control effect; nearly all actives have a fitted effect of over 55% in size
DT40 TDP1 CPT: DT40-hTDP1 cell growth loss with CPT; 420,000 tested, 12% active; chicken DT40 Tdp1-/-;hTDP1 cells + 20 nM CPT, ATP luminescence, 48 h; Potency, µM (series often up to 46.2 µM), for inactives: top-dose activity change, negative = growth inhibition, most hits filed as inhibitors; further: potency means the concentration at half of the fitted maximal effect; on the % scale 0 is the no-effect control and ±100 the full control effect; nearly all actives have a fitted effect of over 55% in size
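Cell growth measured by CellTiter-Glo luminescence after a minimum 48 h, 37 C compound exposure with 20 nM CPT in Tdp1-knockout DT40 cells stably expressing hTDP1, seeded 400/well; qHTS titration format.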
Active calls of the source: *; ? = inconclusive; . = no result given. Rows were chosen to be rich in hits. Some 16% of all compounds tested hit in one or more screens of this group. Unless noted, the call rests on the fitted dose curve; in most records, active means well fitted curve in the direction sought with a large enough effect; inconclusive means small, poorly fitted or top-dose-only effect, or another doubt; inactive means no such curve, though single readings can be large; an effect the other way counts as inactive or inconclusive.

Labels used below: A = TDP1 block; B = miR-21 FLuc; C = TDP1 cell noCPT; D = uPA generation; E = DT40 TDP1 CPT
compound: Cc1cccc(C)c1OCc1nc2c3cnn(-c4ccccc4Br)c3ncn2n1
  A = 2.5%	B = -1.2%	C = ?	D = .	E = 10.3µM*
compound: CCOc1ccc(/C=C(\C)C(=O)c2c(C)cc(C)[nH]c2=O)cc1
  A = .	B = 3.1%	C = 2.9%	D = -20.2%	E = -3.8%
compound: CC(C)CN1CCC2(CC1)CCN(S(=O)(=O)c1ccccc1)CC2
  A = .	B = .	C = 23.1µM*	D = .	E = ?
compound: Cc1ccc(C)c(C(=O)COC(=O)c2ccccc2N2C(=O)C3C4CCC(C4)C3C2=O)c1 (stereo not given)
  A = 3.8%	B = 0.7%	C = 20.6µM*	D = -6.7%	E = 20.6µM*
compound: CCOC(=O)c1ccccc1NC(=O)COC(=O)c1cc([N+](=O)[O-])ccc1N1CCOCC1
  A = -1.0%	B = .	C = 6.51µM*	D = -7.3%	E = ?
compound: CCOC(=O)c1ccccc1NC(=O)COC(=O)CC1CCCCC1
  A = 50.1µM*	B = 0.4%	C = ?	D = 11.9%	E = ?
compound: CCOC(=O)c1ccccc1NC(=O)COC(=O)C1CCCC1
  A = .	B = .	C = -4.1%	D = 4.1%	E = -18.2%
compound: COc1ccc(CN(C)C(=O)COC(=O)c2cc([N+](=O)[O-])ccc2N2CCCC2)c(OC)c1OC
  A = 2.4%	B = .	C = 20.6µM*	D = -14.8%	E = ?
compound: O=C(COC(=O)c1ccccc1NCCO)Nc1cc(C(F)(F)F)ccc1N1CCOCC1
  A = -3.9%	B = 0.6%	C = ?	D = -2.7%	E = 18.4µM*
compound: CC(=O)Nc1ccc(NC(=O)COC(=O)c2cc([N+](=O)[O-])ccc2N2CCOCC2)cc1
  A = 2.2%	B = -10.2%	C = ?	D = -6.8%	E = -16.5%
compound: CN(Cc1ccccc1)C(=O)COC(=O)c1cc([N+](=O)[O-])ccc1N1CCOCC1
  A = .	B = .	C = ?	D = -2.2%	E = -2.9%
compound: Nc1cc(S(=O)(=O)N2CCOCC2)ccc1Oc1ccc(F)cc1
  A = -2.7%	B = 8.2%	C = ?	D = -4.1%	E = ?
compound: CCN(C(=O)COC(=O)c1cc([N+](=O)[O-])ccc1N1CCOCC1)c1ccccc1
  A = 5.1%	B = .	C = 14.6µM*	D = -2.3%	E = ?
compound: CC(C)n1cnc2c(Nc3cccc(Cl)c3)nc(NCCCO)nc21
  A = 6.2%	B = -3.0%	C = 16.4µM*	D = ?	E = 20.6µM*
compound: COC(=O)c1ccccc1NC(=O)CCC(=O)N1CC(C)Sc2ccccc21 (stereo not given)
  A = -5.1%	B = -0.8%	C = 14.6µM*	D = .	E = 16.4µM*

Results in TDP1 cell noCPT and DT40 TDP1 CPT (2 entries from above):
SMILES	TDP1 cell noCPT	DT40 TDP1 CPT
Cc1cccc(C)c1OCc1nc2c3cnn(-c4ccccc4Br)c3ncn2n1	?	10.3µM*
CCOc1ccc(/C=C(\C)C(=O)c2c(C)cc(C)[nH]c2=O)cc1	2.9%	-3.8%

2 records drawn at random from the list so far:
Labels used below: A = TDP1 block; B = miR-21 FLuc; C = TDP1 cell noCPT; D = uPA generation; E = DT40 TDP1 CPT
compound: O=C(COC(=O)c1ccccc1NCCO)Nc1cc(C(F)(F)F)ccc1N1CCOCC1
  A = -3.9%	B = 0.6%	C = ?	D = -2.7%	E = 18.4µM*
compound: CC(=O)Nc1ccc(NC(=O)COC(=O)c2cc([N+](=O)[O-])ccc2N2CCOCC2)cc1
  A = 2.2%	B = -10.2%	C = ?	D = -6.8%	E = -16.5%

Continued.
Labels used below: A = TDP1 block; B = miR-21 FLuc; C = TDP1 cell noCPT; D = uPA generation; E = DT40 TDP1 CPT
compound: CCOC(=O)c1ccccc1NC(=O)N1CC(C)Oc2ccc(C)cc21 (stereo not given)
  A = 3.9%	B = -2.8%	C = ?	D = .	E = ?
compound: Cc1ccc2c(c1)N(C(=O)CCC(=O)Nc1ccc(F)cc1F)CC(C)O2 (stereo not given)
  A = 2.9%	B = -15.8%	C = 7.31µM*	D = .	E = 5.17µM*
compound: Cc1ccc2c(c1)N(C(=O)CCC(=O)N1CCC(C(N)=O)CC1)CC(C)O2 (stereo not given)
  A = .	B = 0.0%	C = 5.1%	D = 2.6%	E = 25.9µM*
compound: CCOC(=O)c1cccc(NC(=O)CCC(=O)N2CC(C)Oc3ccc(C)cc32)c1 (stereo not given)
  A = 8.6%	B = -19.8%	C = ?	D = .	E = 23.1µM*
compound: CCn1cc(C(=O)Nc2ccc(C)cc2C)c(=O)c2ccc(C)nc21
  A = 7.2%	B = -1.8%	C = .	D = .	E = .
compound: COC(=O)c1ccccc1NC(=O)CCC(=O)N1CC(C)Oc2ccc(C)cc21 (stereo not given)
  A = .	B = 2.8%	C = ?	D = 6.8%	E = 14.6µM*
compound: CC1CN(C(=O)CCC(=O)N2CCN(c3cccc(C(F)(F)F)c3)CC2)c2ccccc2O1 (stereo not given)
  A = 5.0%	B = ?	C = 20.6µM*	D = -10.8%	E = 18.4µM*
compound: Cc1cc(C)c2c(N)c(C(=O)Nc3ccc(F)cc3)sc2n1
  A = .	B = -45.0%	C = -0.8%	D = -19.8%	E = -4.1%
compound: O=C(Nc1ccc2nc3n(c(=O)c2c1)CCCCC3)c1c(F)ccc([N+](=O)[O-])c1F
  A = 1.0%	B = ?	C = 2.31µM*	D = 17.0%	E = 2.59µM*
compound: O=C(Nc1ccc2nc3n(c(=O)c2c1)CCCCC3)c1cc([N+](=O)[O-])ccc1F
  A = 1.8%	B = ?	C = 2.59µM*	D = -20.8%	E = 6.51µM*
compound: O=C(Nc1ccc2nc3n(c(=O)c2c1)CCCC3)c1ccccc1F
  A = .	B = -47.5%	C = 1.4%	D = 5.6%	E = -17.8%
compound: COc1ccc(C(=O)Nc2ccc3nc4n(c(=O)c3c2)CCCC4)cc1[N+](=O)[O-]
  A = 2.7%	B = -6.0%	C = .	D = .	E = .
compound: CCc1nc(SCC(=O)OC)c2c3c(sc2n1)COC(C)(C)C3
  A = .	B = -7.4%	C = -1.1%	D = -0.8%	E = -22.0%
compound: COc1ccc(N=C2NC(=O)/C(=C/C=C/c3ccccc3)S2)cc1
  A = 6.5%	B = -6.4%	C = ?	D = -3.0%	E = -1.8%
compound: O=C1NC(=Nc2ccccc2)S/C1=C\C=C\c1ccco1
  A = 2.7%	B = -6.9%	C = 9.2µM*	D = -7.0%	E = 8.2µM*

Labels used below: A = TDP1 block; B = miR-21 FLuc; C = TDP1 cell noCPT; D = uPA generation; E = DT40 TDP1 CPT
compound: Cc1ccc(N=C2NC(=O)/C(=C/C=C/c3ccco3)S2)cc1
  A = -5.6%	B = -16.6%	C = 23.1µM*	D = -0.9%	E = ?
compound: Cc1cccc(N=C2NC(=O)/C(=C/C=C/c3ccco3)S2)c1C
  A = -2.3%	B = -11.9%	C = 16.4µM*	D = -6.4%	E = ?
compound: O=c1[nH]c(-c2ccc3c(c2)OCO3)nc2c1sc(=S)n2-c1ccccc1
  A = 2.9%	B = 4.6%	C = ?	D = 3.5%	E = 7.5%
compound: CC(C)(CO)CNC(=O)CCc1nnc(-c2ccc(-c3ccccc3)cc2)o1
  A = .	B = 16.3%	C = 20.6µM*	D = 0.8%	E = ?
compound: Cc1cccc(CC(C)NC(=O)CCc2nnc(-c3ccccc3)o2)n1 (stereo not given)
  A = 3.0%	B = 1.5%	C = -21.1%	D = 22.5%	E = 2.6%
compound: CC(NC(=O)CCc1nnc(-c2ccc(-c3ccccc3)cc2)o1)c1nc2ccccc2[nH]1 (stereo not given)
  A = 6.0%	B = 18.8%	C = 16.4µM*	D = .	E = 18.4µM*
compound: O=C1NC[C@H](CCCCN2C[C@H](Cc3ccc(O)cc3)N(CC3CCCCC3)C(=O)C2=O)N(CCc2ccc(O)cc2)C1=O
  A = .	B = .	C = -6.4%	D = .	E = 1.5%
compound: Cc1ccc2c(c1)N(CC(=O)NCCCN1CCCCC1C)C(=O)c1cccnc1O2 (stereo not given)
  A = 5.3%	B = -4.4%	C = 14.4%	D = 4.2%	E = -0.3%
compound: O=C(c1ccc(Cl)cc1)N1CCC(c2ccncc2)CC1
  A = -6.4%	B = 9.8%	C = -71.9%	D = .	E = ?
compound: Cn1nc(C(=O)NCc2ccc(Cl)cc2)c2c1-c1ccccc1SC2
  A = 11.4%	B = -12.1%	C = ?	D = .	E = ?
compound: CO[C@H]1C[C@@H]2CC[C@@H](C)[C@@](O)(O2)C(=O)C(=O)N2CCCC[C@H]2C(=O)OC([C@H](C)C[C@@H]2CC[C@@H](O)[C@H](OC)C2)CC(=O)[C@H](C)/C=C(\C)[C@@H](O)[C@@H](OC)C(=O)[C@H](C)C[C@H](C)/C=C/C=C/C=C/1C (stereo not given in full)
  A = 13.4%	B = .	C = 0.0092µM*	D = .	E = 0.0103µM*
